Data from patent US11458127B2, “Methods of treating brain tumors using combination therapy” (SERVIER PHARMACEUTICALS LLC, priority 2017, dated 2022).

Tested on: orthotopic human neurosphere-derived grade III glioma cells carrying an IDH1 R132H mutation (TS603 cell line)
Assay: Example 2: ivosidenib and focal radiation in orthotopic IDH1m glioma mouse model, survival end point
Type: in vivo, mice
Conditions: for % ILS (% increase in lifespan): versus median control lifespan
[1] = combination therapy with focal radiation, Groups 4 and 5

SMILES: N#Cc1ccnc(N2C(=O)CC[C@H]2C(=O)N(c2cncc(F)c2)[C@H](C(=O)NC2CC(F)(F)C2)c2ccccc2Cl)c1 [Ivosidenib, (S)—N—((S)-1-(2-Chlorophenyl)-2-(3,3-difluorocyclobutylamino)-2-oxoethyl)-1-(4-cyanopyridin-2-yl)-N-(5-fluoropyridin-3-yl)-5-oxopyrrolidine-2-carboxamide]
- Median Lifespan (Group 3, ivosidenib alone 150 mg/kg PO Q12H, from day of first treatment): 21 days
- % ILS (% increase in lifespan) (Group 3, ivosidenib alone): 0%
- Median Lifespan (Group 4, ivosidenib 150 mg/kg PO Q12H + focal radiation (10 Gy total), simultaneous): 45 days
- Median Lifespan (Group 5, focal radiation (10 Gy total) then ivosidenib 150 mg/kg PO Q12H, sequential): 42 days
- % ILS (% increase in lifespan) (Group 5, focal radiation then ivosidenib, sequential): 100%
- Increase in lifespan (in words) [1]: substantial increases in lifespan
- Increase in lifespan compared to Focal Radiation alone (Group 2) [1]: comparable increases in lifespan
- Antagonism of combination of ivosidenib and radiation therapy (combination with radiation therapy, lifespan): no antagonism in vivo
